According to patent US7217411B2, “CeSERT genes, proteins, and modulatory compounds” (Massachusetts Institute of Technology, priority 2000, dated 2007):

Assays:
[1] = biological target: T1, MOD-5 CeSERT (Caenorhabditis elegans, UniProt Q963F3); test: cell-based
T1 sequence (Q963F3 1-671): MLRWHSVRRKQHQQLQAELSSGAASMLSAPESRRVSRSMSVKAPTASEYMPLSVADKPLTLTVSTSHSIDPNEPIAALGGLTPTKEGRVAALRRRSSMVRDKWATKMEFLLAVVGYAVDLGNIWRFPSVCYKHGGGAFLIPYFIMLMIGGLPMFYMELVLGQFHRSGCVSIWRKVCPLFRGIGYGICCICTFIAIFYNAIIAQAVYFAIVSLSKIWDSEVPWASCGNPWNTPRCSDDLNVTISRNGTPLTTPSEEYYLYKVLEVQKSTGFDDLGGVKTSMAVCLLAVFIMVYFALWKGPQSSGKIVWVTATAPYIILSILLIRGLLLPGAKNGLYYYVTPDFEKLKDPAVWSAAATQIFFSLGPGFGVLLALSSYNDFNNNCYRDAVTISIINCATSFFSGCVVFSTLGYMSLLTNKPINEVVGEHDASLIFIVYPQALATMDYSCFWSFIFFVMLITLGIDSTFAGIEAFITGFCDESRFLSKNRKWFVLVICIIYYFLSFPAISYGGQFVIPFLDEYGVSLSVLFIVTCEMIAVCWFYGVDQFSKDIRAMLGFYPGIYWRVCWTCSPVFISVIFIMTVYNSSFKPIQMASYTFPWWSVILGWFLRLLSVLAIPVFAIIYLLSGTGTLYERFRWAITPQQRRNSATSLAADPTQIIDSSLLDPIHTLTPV

[2] = tested on: C. elegans; test: effects of high concentrations of fluoxetine on C. elegans (literature)
[3] = tested on: C. elegans NSMs; test: serotonin uptake in vivo, anti-serotonin staining of NSMs; settings: tph-1, then 2 mM 5-HT + fluoxetine 2 hours
[4] = biological target: T1, MOD-5 CeSERT; test: MOD-5-mediated [^3H]serotonin uptake in HEK293 cell lines stably expressing MOD-5; settings: 50 μM radiolabeled neurotransmitter vs 1 μM [^3H]serotonin

CN(C)CCCC1(c2ccc(F)cc2)OCc2cc(C#N)ccc21 (stereo not drawn) [citalopram]
Ki [1]: 994 ± 298 nM

CNCCC(Oc1ccc(C(F)(F)F)cc1)c1ccccc1 (stereo not drawn) [fluoxetine]
Ki [1]: 133 ± 90 nM
concentration for paralysis, nose contraction, egg-laying relative to that blocking serotonin uptake in vivo and potentiating enhanced slowing [2]: at least 2.5 fold
% Serotonin-positive NSMs ([3]; fluoxetine 0.22 mM 1 hr): 20%
% Serotonin-positive NSMs ([3]; fluoxetine 0.29 mM 1 hr): 7%
% Serotonin-positive NSMs ([3]; fluoxetine 0.44 mM 1 hr): 0%

Fc1ccc([C@@H]2CCNC[C@H]2COc2ccc3c(c2)OCO3)cc1 [paroxetine]
Ki [1]: 179 ± 64 nM

NCC(=O)O [glycine]
MOD-5-mediated uptake of radiolabeled neurotransmitter [4]: inefficient at translocating

CNCCCN1c2ccccc2CCc2ccccc21 [desipramine]
Ki [1]: 334 ± 115 nM
